Test results reported in patent US8987414 (AILERON THERAPEUTICS, dated 2015).

Chains of the proteins cited; added tags and fusions are not shown. Residues count along the entry.
UniProt Q00987, 1-138 limits assumed: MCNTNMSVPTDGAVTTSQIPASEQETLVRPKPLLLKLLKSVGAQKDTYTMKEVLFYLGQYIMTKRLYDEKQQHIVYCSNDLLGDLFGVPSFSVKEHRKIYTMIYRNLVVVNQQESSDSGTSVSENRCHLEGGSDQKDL

Key:
[1] = target: T1, MDMX (In-house, 40 kD) (UniProt O15151 1-134, limits assumed); assay: direct binding fluorescence polarization, MDMX titrated against 10 nM FAM-labeled peptide
T1 construct: Construct used in the FP assays is described only as in-house, 40 kD; also called MDM4
T1 sequence (looked up): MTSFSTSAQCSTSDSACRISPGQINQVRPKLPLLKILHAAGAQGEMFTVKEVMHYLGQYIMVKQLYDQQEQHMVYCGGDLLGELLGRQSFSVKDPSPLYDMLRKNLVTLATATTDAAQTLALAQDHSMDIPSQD
Procedure: The assay is performed according to the following general protocol: 1. […] 2. […] 3. […] 4. […] 5. […] Then, dilute from 100 µM to 10 µM with water (dilution 1:10) and then dilute with FP buffer from 10 µM to 40 nM (dilution 1:250). This is the working solution which will be a 10 nM concentration in well (dilution 1:4). […] 6.

[2] = target: T2, MDM2 (In-house, 41 kD) (UniProt Q00987 1-138, limits assumed); assay: direct binding fluorescence polarization, MDM2 titrated against 10 nM FAM-labeled peptide
T2 construct: Construct used in the FP assays is described only as in-house, 41 kD; also called HDM2
Procedure: 5. […] Then, dilute from 100 µM to 10 µM with water (dilution 1:10) and then dilute with FP buffer from 10 µM to 40 nM (dilution 1:250). This is the working solution which will be a 10 nM concentration in well (dilution 1:4).

Kd [1]: ~51 nM | Kd [2]: ~13.4 nM
B1: 5-FAM-BaLTFEHYWAQLTS-NH2 (peptide)
peptide: ALTFEHYWAQLTS
modifications: N-terminal 5-FAM label; Ba = beta-alanine before Leu; C-terminal amide (NH2)
notes: Linear fluorescent tracer peptide of the FP assays; also called FAM labeled linear peptide; FAM labeled peptide
